From patent publication US20140107051A1, “ISOFLAVONES FOR TREATING MUCOPOLYSACCHARIDOSES” (INSTYTUT FARMACEUTYCZNY, priority 2005, published 2014)

Test: in vitro

O=c1c(-c2ccc(O)cc2)coc2cc(O)cc(O)c12 [Genistein, 4′,5,7-trihydroxy-3-phenylchromen-4-on, reference compound]
CC50 at 24 h: > 100 µM
